Experimental findings from PubChem BioAssay AID2006 (Sanford-Burnham Center for Chemical Genomics, 2009) are described below.

Sequences of proteins named here, by UniProt entry; tags and fusion partners are left off.
UniProt P63279, whole entry, looked up: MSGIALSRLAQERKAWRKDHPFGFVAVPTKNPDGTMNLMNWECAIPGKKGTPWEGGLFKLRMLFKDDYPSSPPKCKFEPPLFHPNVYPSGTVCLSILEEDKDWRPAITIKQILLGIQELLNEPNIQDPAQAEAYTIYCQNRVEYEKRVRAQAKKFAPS

The list shows a part of the results, in another mix than the full data. Activity calls are given as the source filed them. Cut-off read from the data, not from the text of the source: active = inhibition above about 50% (passing the limit was not always enough); inconclusive = no clear call, values can overlap the other calls.

The experiment deals with SUMO-conjugating enzyme UBC9 (Homo sapiens) (UniProt P63279). Briefly: blockers of SAE1/SAE2–UBC9 SUMO transfer – biochemical, HTRF, uHTS, primary screen (AID 2006). The conditions noted are these: HTRF SUMOylation assay, SAE1/SAE2 + UBC9, in vitro; at 35 µM; hits give high values. On the technique in general: In TR-FRET formats the signal depends on donor and acceptor labels being close together.
For the molecule `Cc1ccc(NP(=O)(Oc2cccc(C)c2)Oc2cccc(C)c2)nc1`, the inhibition was inactive: 17.6%.

Take `CCOC(=O)NC(Sc1ccccc1)C(Cl)(Cl)Cl` (centres undefined): the inhibition is inactive: -2.1%.

Turning to `CCNC(=S)/N=C(\N)N[N+](=O)[O-]`, the inhibition was inactive: 6.4%.

Regarding `O=C(NC1CCS(=O)(=O)C1)NP(=S)(Oc1ccccc1)Oc1ccccc1` (centres undefined), the inhibition was inactive: 13.2%.

In the case of `O=C(OC1CN2CCC1CC2)c1ccccc1` (centres undefined), the inhibition is inactive: -1%.

For the molecule `CCC(=O)N1C2C3N(C(=O)CC)C1C1N(C(=O)CC)C(C(N1C(=O)CC)N3C(=O)CC)N2C(=O)CC`, the inhibition was inactive: 25.3%.

In the case of `COC(=O)c1cc2c(s1)N=C(c1ccccc1)N(C)P2(=O)N1CCOCC1` (centres undefined), the inhibition was inactive: 22.3%.

For the molecule `CC(=O)NC(SC(=S)N(CC(C)C)CC(C)C)C(Cl)(Cl)Cl` (centres undefined), the inhibition was inactive: -0.8%.

As for `Cc1ccc(OP(=O)(Nc2ccccn2)Oc2ccc(C)cc2)cc1`, the inhibition was inactive: -23.3%.

As for `Cc1ccccc1OP(=O)(Nc1ccccn1)Oc1ccccc1C`, the inhibition is inactive: 7.1%.

As to `CN(C)C(=O)Oc1noc2ccccc12`, the inhibition is inactive: 4.8%.

As to `O=c1c2cc([N+](=O)[O-])ccc2[nH]c2c([N+](=O)[O-])cc([N+](=O)[O-])cc12`, the inhibition was inactive: 13.3%.

Regarding `O=P1(Nc2nc3ccc(Cl)cc3s2)COc2ccccc2O1` (centres undefined), the inhibition was inactive: 22%.

Consider `CCOc1ccc(C2=NCC(CBr)S2)cc1` (centres undefined), for which the inhibition was inactive: 11.7%.

Take `CC(C)(C)C(=O)NC(Sc1ccccc1)C(Cl)(Cl)Cl` (centres undefined): the inhibition is inactive: 2.9%.

In the case of `C[C@@H]1C=CCP(=O)(Oc2ccccc2)O1` (some centres undefined), the inhibition was inactive: 11.9%.

For `C[C@H]1OP(=O)(Oc2ccccc2)C[C@@H]2O[C@@H]21` (some centres undefined), the inhibition was inactive: -2.9%.

For the molecule `CC(=O)c1ccc(N2CC2c2ccncc2)cc1` (centres undefined), the inhibition was inactive: -4.3%.

On to `CC(=O)Nc1ccc([As](=O)(O)O)c(O)c1`, for which the inhibition was inactive: 26.6%.

As for `CC(=O)Nc1ccc(Oc2c([N+](=O)[O-])cc([N+](=O)[O-])cc2[N+](=O)[O-])cc1`, the inhibition was inactive: 2%.

`CC(C)C(=O)NC(Sc1ccccc1)C(Cl)(Cl)Cl` (centres undefined): the inhibition was inactive: 9.5%.

Turning to `O=P(Nc1nccs1)(c1ccccc1)c1ccccc1`, the inhibition was inactive: 10.3%.

For `c1nnnn1CCn1cnnn1`, the inhibition was inactive: 6.7%.

For the molecule `O=P(Nc1ccccn1)(c1ccc(Br)cc1)c1ccc(Br)cc1`, the inhibition was inactive: 10.7%.

As to `CN(C)C1(CNC(=O)c2ccc(Cl)c(S(N)(=O)=O)c2)CCCCC1`, the inhibition is inactive: -9.8%.

Turning to `O=P(Nc1nc2ccccc2s1)(c1ccccc1)c1ccccc1`, the inhibition was inactive: 23.4%.

Turning to `C[C@H]1OP(=O)(Oc2ccccc2)[C@H](O)[C@H](O)[C@H]1N=[N+]=[N-]` (some centres undefined), the inhibition is inactive: -4.1%.

As for `O=[As](O)(c1ccccc1)c1ccc(O)cc1`, the inhibition is inactive: 22.5%.

In the case of `O=[N+]([O-])c1ccc(O)c(/C=N/Nc2ccc([N+](=O)[O-])cc2[N+](=O)[O-])c1`, the inhibition is inactive: 10.8%.

In the case of `CC(=O)NC(SC(=S)N(C)C)C(Cl)(Cl)Cl` (centres undefined), the inhibition is inactive: -5.4%.

On to `O=[N+]([O-])c1ncn(CCn2cnc([N+](=O)[O-])n2)n1`, for which the inhibition was inactive: 7.1%.

With `O=C(OC1CN2CCC1CC2)c1cccc(Cl)c1` (centres undefined), the inhibition was inactive: -2.9%.

For the molecule `Nc1ccc([As](=O)(O)c2ccc([N+](=O)[O-])cc2)cc1`, the inhibition was inactive: 22.3%.

For the molecule `C(Cc1nn[nH]n1)Cc1nn[nH]n1`, the inhibition was inactive: 6.8%.

As usually defined, the inhibition is the drop in the measured response relative to a control, in per cent.
